Laboratory results taken from US10202345B2, “Substituted azaspiro(4.5)decane derivatives” (priority 2014, dated 2019).

Amino acid sequences for entries named in this document (tags omitted). A change or cut given only in a name is not applied to a line headed by its entry.
UniProt P35372, whole entry, looked up: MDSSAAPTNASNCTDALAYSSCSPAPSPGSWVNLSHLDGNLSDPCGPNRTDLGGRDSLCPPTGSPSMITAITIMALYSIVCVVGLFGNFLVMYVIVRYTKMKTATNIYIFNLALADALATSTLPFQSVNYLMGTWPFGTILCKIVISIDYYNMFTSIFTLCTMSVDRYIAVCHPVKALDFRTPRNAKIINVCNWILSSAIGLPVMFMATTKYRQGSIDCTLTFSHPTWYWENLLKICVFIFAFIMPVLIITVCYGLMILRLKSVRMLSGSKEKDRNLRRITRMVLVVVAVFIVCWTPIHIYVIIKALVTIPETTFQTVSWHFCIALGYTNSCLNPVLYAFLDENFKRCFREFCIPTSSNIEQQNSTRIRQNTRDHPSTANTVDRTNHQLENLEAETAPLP
UniProt P41146: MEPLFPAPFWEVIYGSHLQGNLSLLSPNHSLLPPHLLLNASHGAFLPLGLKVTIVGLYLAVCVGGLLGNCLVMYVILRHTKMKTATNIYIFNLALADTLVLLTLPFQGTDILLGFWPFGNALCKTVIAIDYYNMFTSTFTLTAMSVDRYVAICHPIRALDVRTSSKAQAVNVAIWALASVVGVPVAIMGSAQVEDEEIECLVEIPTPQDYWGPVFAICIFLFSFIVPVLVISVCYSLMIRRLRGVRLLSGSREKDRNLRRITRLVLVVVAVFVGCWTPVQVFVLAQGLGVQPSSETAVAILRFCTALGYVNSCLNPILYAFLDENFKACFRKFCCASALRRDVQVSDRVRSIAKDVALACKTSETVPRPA

Legend:
human μ opiate receptor = human μ opiate receptor (Homo sapiens, UniProt P35372); test: μ opiate receptor binding assay with [3H]-naloxone (WGA-SPA beads); conditions: for Ki: read-out: Ki (μ) mean [μm], mean; for % inhibition (μ) [1 μM]: test concentration 1 μM
ORL1 receptor = ORL1 receptor (Homo sapiens, UniProt P41146); test: ORL1 receptor binding assay with 3H-nociceptin/orphanin FQ (WGA-SPA beads); conditions: for Ki: read-out: Ki (ORL1) mean, mean; for % inhibition (ORL1) [1 μM]: test concentration 1 μM

Row | Compound | Ki (human μ opiate receptor) [µM] | % inhibition (μ) [1 μM] (human μ opiate receptor) [%] | Ki (ORL1 receptor) [µM] | % inhibition (ORL1) [1 μM] (ORL1 receptor) [%] | % inhibition (μ) [1 μM] (human μ opiate receptor; 1 µM) [%] | % inhibition (ORL1) [1 μM] (ORL1 receptor; 1 µM) [%]
1 | CNC1(c2ccccc2)CCC2(CCN(C(=O)CC3CCC3)C2)CC1 (stereo not drawn) | 0.0013 | 100.5 | 0.00605 | 92.5 |  | 
2 | CCOCCN1CC2(CCC(c3ccccc3)(N(C)C)CC2)CC1=O (stereo not drawn) | 0.0043 | 97.5 | 0.00375 | 96 |  | 
3 | CN(C)C1(c2cccs2)CCC2(CCN(CC3CCOC3)C2)CC1 (stereo not drawn) | 0.0053 | 98 | 0.0111 | 87 |  | 
4 | CN(C)C1(C2CCCC2)CCC2(CC1)CC(=O)N(CC1COC1)C2 (stereo not drawn) | 0.0985 | 74.5 | 0.255 | 26 |  | 
5 | CN(C)C1(c2cccs2)CCC2(CCN(CC3(O)CCC3)C2)CC1 (stereo not drawn) | 0.00475 | 99.5 | 0.00417 | 94.5 |  | 
6 | COC(C)CCN1CC2(CCC(c3ccccc3)(N(C)C)CC2)CC1=O (stereo not drawn) | 0.0024 | 100 | 0.00135 | 95 |  | 
7 | COC1(C(=O)N2CCC3(CCC(c4ccccc4)(N(C)C)CC3)C2)CCC1 (stereo not drawn) | 0.0195 | 96 | 0.0545 | 66.5 |  | 
8 | CN(C)C1(c2ccccc2)CCC2(CCN(C(=O)C(C)(C)C#N)C2)CC1 (stereo not drawn) | 0.0795 | 90 | 0.24 | 60.5 |  | 
9 | CN(C)C1(c2cccs2)CCC2(CCN(C(=O)C3CCOCC3)C2)CC1 (stereo not drawn) | 0.0215 | 93.5 | 0.036 | 77 |  | 
10 | CNC1(c2cccs2)CCC2(CC1)CC(=O)N(CCC1(OC)CCC1)C2 (stereo not drawn) | 0.0013 | 99 | 0.00935 | 90.5 |  | 
11 | CC(=O)N1CCC2(CCC(Cc3ccccc3)(N(C)C)CC2)C1 (single isomer, unassigned) |  |  |  | 25 |  | 
12 | CCOC(C)CN1CC2(CCC(c3cccs3)(N(C)C)CC2)CC1=O (stereo not drawn) | 0.0052 | 101 | 0.0021 | 95.5 |  | 
13 | CN(C)C1(C2CCCC2)CCC2(CCN(CCC3(C#N)CC3)C2)CC1 (stereo not drawn) | 0.0016 | 97.7 | 0.039 | 64 |  | 
14 | 1-[8-Dimethylamino-8-(5-fluorothiophen-2-yl)-3-azaspiro[4.5]decan-3-yl]-3-methoxy-3-methylbutan-1-one | 0.0004 | 99.5 | 0.0022 | 93.5 |  | 
15 | CC(C)CCN1CCC2(CCC(C3CCCC3)(N(C)C)CC2)C1 (stereo not drawn) | 0.00145 | 100 | 0.00633 | 91 |  | 
16 | COCC1(C(=O)N2CCC3(CCC(c4ccc(Cl)s4)(N(C)C)CC3)C2)CCC1 (stereo not drawn) | 0.00525 | 98 | 0.148 | 48.5 |  | 
17 | CN(C)C1(C2CCCC2)CCC2(CC1)CC(=O)N(CC1CCC1)C2 (stereo not drawn) | 0.002 | 0 | 0.00745 | 0 |  | 
18 | COC1(CCN2CCC3(CCC(C4CCCC4)(N(C)C)CC3)C2)CCC1 (stereo not drawn) | 0.0028 | 98 | 0.0136 | 89 |  | 
19 | COCC1(C(=O)N2CCC3(CCC(c4ccc(Cl)s4)(N(C)C)CC3)C2)CC1 (stereo not drawn) | 0.0115 | 97.5 | 0.355 | 37 |  | 
20 | CCCCN1CC2(CCC(C3CCCC3)(N(C)C)CC2)CC1=O (stereo not drawn) | 0.0087 | 99.5 | 0.0635 | 75.5 |  | 
21 | CN(C)C1(C2CCCC2)CCC2(CCN(CC3CCC3)C2)CC1 (stereo not drawn) | 0.00465 | 99.5 | 0.00435 | 94.5 |  | 
22 | CN(C)C1(c2ccccc2)CCC2(CCN(C(=O)C3COC3)C2)CC1 (stereo not drawn) | 0.036 | 93.5 | 0.0425 | 77.5 |  | 
23 | CN(C)C1(c2cccs2)CCC2(CCN(C(=O)C3(O)CCC3)C2)CC1 (stereo not drawn) | 0.00545 | 99.5 | 0.0185 | 81.5 |  | 
24 | CN1CC2(CCC(C3CCCC3)(N(C)C)CC2)CC1=O (stereo not drawn) |  | 67.5 | 1.38 | 19.5 |  | 
25 | CC(=O)N1CCC2(CCC(Cc3ccccc3)(N(C)C)CC2)C1 (stereo not drawn) |  |  | 2.16 | 16 |  | 
26 | COCCC(=O)N1CCC2(CCC(c3ccccc3)(N(C)C)CC2)C1 (stereo not drawn) | 0.0059 | 97.5 | 0.0088 | 92 |  | 
27 | CNC1(c2cccs2)CCC2(CCN(C(=O)CC(C)C)C2)CC1 (stereo not drawn) | 0.00415 | 98 | 0.018 | 72 |  | 
28 | CN(C)C1(c2cccs2)CCC2(CCN(C(=O)C(C)(C)C#N)C2)CC1 (stereo not drawn) | 0.047 | 87 | 0.105 | 43.5 |  | 

Row | Compound | Ki (human μ opiate receptor) [µM] | % inhibition (μ) [1 μM] (human μ opiate receptor) [%] | Ki (ORL1 receptor) [µM] | % inhibition (ORL1) [1 μM] (ORL1 receptor) [%] | % inhibition (μ) [1 μM] (human μ opiate receptor; 1 µM) [%] | % inhibition (ORL1) [1 μM] (ORL1 receptor; 1 µM) [%]
29 | CN(C)C1(c2cccs2)CCC2(CC1)CC(=O)N(CCC1CCOCC1)C2 (stereo not drawn) | 0.0037 | 99 | 0.013 | 95.5 |  | 
30 | CCCCC1(N(C)C)CCC2(CCN(C(=O)CCC3CC3)C2)CC1 (stereo not drawn) | 0.016 | 98 | 0.0405 | 66.5 |  | 
31 | CCOC(C)CN1CC2(CCC(c3ccccc3)(N(C)C)CC2)CC1=O (stereo not drawn) | 0.0043 | 99 | 0.0015 | 95.5 |  | 
32 | CN(C)C1(c2cccs2)CCC2(CCN(CC3(C#N)CC3)C2)CC1 (stereo not drawn) | 0.013 | 96 | 0.019 | 85 |  | 
33 | CN(C)C1(c2ccccc2)CCC2(CCN(C(=O)C3(C#N)CCC3)C2)CC1 (stereo not drawn) | 0.03 | 93 | 0.073 | 72 |  | 
34 | (8-Benzyl-3-butyl-3-azaspiro[4.5]decan-8-yl)-dimethylamine [11] | 0.034 |  | 0.16 |  | 71.5 | 43.5
35 | CN(C)C1(c2ccc(Cl)s2)CCC2(CCNC2=O)CC1 (stereo not drawn) | 2.55 | 31.5 |  | 15 |  | 
36 | CN(C)C1(c2ccccc2)CCC2(CCN(C(=O)C3CCC3)C2)CC1 (stereo not drawn) | 0.0032 | 99.5 | 0.0021 | 94 |  | 
37 | CN1CCC2(CCC(c3cccs3)(N(C)C)CC2)C1=O (stereo not drawn) | 0.71 | 34 |  | 30 |  | 
38 | CN(C)C1(C2CCCC2)CCC2(CC1)CC(=O)N(CCC1(C#N)CCC1)C2 (stereo not drawn) | 0.00565 | 97.33 | 0.064 | 70.5 |  | 
39 | CN(C)C1(c2ccccc2)CCC2(CCN(C(=O)C3CCOCC3)C2)CC1 (stereo not drawn) | 0.064 | 92.5 | 0.054 | 78.5 |  | 
40 | CC(C)CN1CC2(CCC(c3ccccc3)(N(C)C)CC2)CC1=O (stereo not drawn) | 0.00615 | 98 | 0.00525 | 90.5 |  | 
41 | CN(C)C1(c2cccs2)CCC2(CCN(CC3COC3)C2)CC1 (stereo not drawn) | 0.022 | 94.5 | 0.0305 | 84.5 |  | 
42 | CN(C)C1(C2CCCC2)CCC2(CCN(CCC3(C#N)CCC3)C2)CC1 (stereo not drawn) | 0.0123 | 99 | 0.093 | 76.5 |  | 
43 | CCCCC1(N(C)C)CCC2(CCN(C(=O)CC3CC3)C2)CC1 (stereo not drawn) | 0.017 | 90.5 | 0.044 | 61.5 |  | 
44 | COC(C)CN1CC2(CCC(c3cccs3)(N(C)C)CC2)CC1=O (stereo not drawn) | 0.00715 | 97.5 | 0.0092 | 88.5 |  | 
45 | Cc1ccc(C2(N(C)C)CCC3(CC2)CC(=O)N(CC2CCC2)C3)s1 (stereo not drawn) | 0.0535 | 97 | 0.345 | 63 |  | 
46 | COC(C)(C)CN1CC2(CCC(c3ccccc3)(N(C)C)CC2)CC1=O (stereo not drawn) | 0.00285 | 99 | 0.00175 | 95.5 |  | 
47 | CN(C)C1(c2ccccc2)CCC2(CCNC2=O)CC1 (stereo not drawn) | 1.89 | 34 |  | 13 |  | 
48 | CCCCN1CC2(CCC(c3ccccc3)(N(C)C)CC2)CC1=O (stereo not drawn) | 0.003 | 97 | 0.0022 | 93.5 |  | 
49 | CN(C)C1(c2cccs2)CCC2(CCN(CCC3COC3)C2)CC1 (stereo not drawn) | 0.00635 | 98.5 | 0.018 | 89 |  | 
50 | CN(C)C1(c2cccs2)CCC2(CCN(CCC3CCOC3)C2)CC1 (stereo not drawn) | 0.0015 | 100 | 0.00113 | 94 |  | 
51 | CC(=O)N1CCC2(CCC(c3ccccc3)(N(C)C)CC2)C1 (stereo not drawn) | 0.275 | 58.5 | 0.161 | 43 |  | 
52 | COC(C)(C)CCN1CC2(CCC(c3ccc(C)s3)(N(C)C)CC2)CC1=O (stereo not drawn) | 0.0014 | 101 | 0.0035 | 93.5 |  | 
53 | Cc1ccc(C2(N(C)C)CCC3(CC2)CC(=O)N(CC2CC2)C3)s1 (stereo not drawn) | 1.13 | 44 | 0.455 | 33 |  | 
54 | CN(C)C1(c2cccs2)CCC2(CCNC2=O)CC1 (stereo not drawn) | 0.895 | 28 |  | 19 |  | 
55 | CCCC(=O)N1CCC2(CCC(c3ccc(F)s3)(N(C)C)CC2)C1 (stereo not drawn) | 0.026 | 97.5 | 0.03 | 86.5 |  | 
